Values of other authors, collected in publication PMC5820113 (Neuropharmacology, 2017).

Target: dopamine transporter (DAT)
Settings: read-out: Ki, DAT affinity; ref Cao et al, 2016; Zhang et al, 2017; cited from earlier work

**Q.** Which Ki does the source give for `Fc1ccc(C(SCCNCCCc2ccccc2)c2ccc(F)cc2)cc1` [JJC8-016, N-[2-([bis(4-fluorophenyl)methyl]thio)ethyl]-3-phenylpropan-1-amine] here?
**A.** 116 nM
